These results are taken from US20150051212A1, “Compositions And Methods For Inhibiting Drusen” (Regenerative Research Foundation, priority 2012, published 2015).

The experiment concerns RPESC-derived RPE cells. As to the kind of experiment: Restored resistance: transepithelial resistance of RPESC-derived RPE after oxidative stress. Particulars: oxidative stress by TBHP; FIG. 3. In kind it is cell-based, human. An excerpt:
The ability of a test substance to restore transepithelial resistance may also be determined in the RPE cell-based assay. RPE cells are a tight junctioned epithelia and compromised epithelial integrity is a hallmark of RPE-associated diseases, such as, e.g., dry AMD.
Restored resistance. Healthy RPE form tight functioned epithelia layers with high electrical resistance. Compromising the integrity of these layers decreases the resistance and is indicative of a diseased state, such as dry or other forms of AMD.
Preferably, each well of primary human RPE cells has a resistance greater than 200 Ω·cm^2 before beginning the experiment. Resistance of RPE treated with a test compound is measured again, after oxidative stress, and compared to the resistance in untreated RPE subjected to the same oxidative stress procedure.

Regarding Ponatinib, the “effect on decrease in transepithelial resistance after oxidative stress” value is listed as “attenuate the decrease in transepithelial resistance”.
